{"sequences": {"note": "Amino acid sequences for entries named in this document (tags omitted). A change or cut given only in a name is not applied to a line headed by its entry. Residues count along the entry.", "UniProt Q62758": "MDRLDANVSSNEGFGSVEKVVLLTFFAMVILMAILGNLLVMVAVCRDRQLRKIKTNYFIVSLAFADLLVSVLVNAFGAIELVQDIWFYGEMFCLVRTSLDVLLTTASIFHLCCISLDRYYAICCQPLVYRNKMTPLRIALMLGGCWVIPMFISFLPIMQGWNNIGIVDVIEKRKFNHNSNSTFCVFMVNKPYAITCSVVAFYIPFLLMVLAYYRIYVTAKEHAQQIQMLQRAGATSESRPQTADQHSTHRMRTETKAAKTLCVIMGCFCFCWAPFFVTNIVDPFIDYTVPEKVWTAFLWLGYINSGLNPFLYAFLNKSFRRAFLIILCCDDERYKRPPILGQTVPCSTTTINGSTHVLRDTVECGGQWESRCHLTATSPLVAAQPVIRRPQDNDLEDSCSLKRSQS", "UniProt P35563, 24-483 limits assumed": "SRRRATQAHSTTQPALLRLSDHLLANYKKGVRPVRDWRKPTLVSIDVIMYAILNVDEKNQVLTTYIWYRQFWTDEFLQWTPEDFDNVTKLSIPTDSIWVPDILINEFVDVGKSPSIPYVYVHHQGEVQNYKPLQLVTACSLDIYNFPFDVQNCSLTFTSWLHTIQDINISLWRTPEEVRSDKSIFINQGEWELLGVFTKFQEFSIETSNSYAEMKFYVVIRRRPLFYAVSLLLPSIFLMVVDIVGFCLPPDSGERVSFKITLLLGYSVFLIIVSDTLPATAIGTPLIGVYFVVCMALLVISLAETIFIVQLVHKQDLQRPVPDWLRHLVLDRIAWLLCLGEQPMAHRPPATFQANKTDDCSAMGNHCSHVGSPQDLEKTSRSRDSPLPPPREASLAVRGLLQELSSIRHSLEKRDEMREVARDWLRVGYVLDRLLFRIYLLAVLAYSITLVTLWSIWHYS", "UniProt Q9JJ16, 22-437 limits assumed": "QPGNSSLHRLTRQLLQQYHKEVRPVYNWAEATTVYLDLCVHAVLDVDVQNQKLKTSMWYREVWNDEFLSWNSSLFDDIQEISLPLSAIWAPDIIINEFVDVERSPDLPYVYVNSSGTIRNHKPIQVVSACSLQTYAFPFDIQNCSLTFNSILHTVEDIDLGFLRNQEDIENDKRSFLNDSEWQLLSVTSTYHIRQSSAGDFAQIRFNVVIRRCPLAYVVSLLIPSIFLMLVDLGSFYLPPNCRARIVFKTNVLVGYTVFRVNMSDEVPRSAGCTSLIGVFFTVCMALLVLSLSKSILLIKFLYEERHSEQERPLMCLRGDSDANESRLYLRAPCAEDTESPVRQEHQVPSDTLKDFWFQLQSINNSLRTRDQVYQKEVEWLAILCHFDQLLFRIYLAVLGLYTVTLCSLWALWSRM"}, "source": "ChEMBL document CHEMBL1152116", "about": "“Novel benzimidazole-4-carboxylic acid derivatives as potent and selective 5-HT3 receptor ligands” (Bioorg Med Chem Lett, 1996)", "key": {"[1]": {"biological_target": "5-hydroxytryptamine receptor 4 (Rattus norvegicus, UniProt Q62758)", "experiment": "Displacement of [3H]GR-113808 from rat striatum 5-hydroxytryptamine 4 receptor"}, "[2]": {"biological_target": "Serotonin 3 (5-HT3) receptor (Rattus norvegicus, UniProt P35563+Q9JJ16)", "experiment": "In vitro displacement of [3H]-LY 278584 from rat cerebral cortex 5-hydroxytryptamine 3 receptor"}}, "data": [{"smiles": "O=C(OC1CN2CCC1CC2)c1cc(Cl)cc2[nH]cnc12", "note": "(centres undefined)", "values": [{"measurement": "Ki", "setting": "[1]", "value": 0.44, "unit": "µM"}, {"measurement": "Ki", "setting": "[2]", "value": 0.0093, "unit": "µM"}]}, {"smiles": "O=C(OC1CN2CCC1CC2)c1cccc2nc[nH]c12", "note": "(centres undefined)", "values": [{"measurement": "Ki", "setting": "[1]", "value": "> 10", "unit": "µM"}, {"measurement": "Ki", "setting": "[2]", "value": 0.185, "unit": "µM"}]}]}
